Most compounds without a hit are left out; they make up all but 3.7% or so of the library.
miR-21 reporter = raises the signal of a miR-21 reporter; HeLa miR-21 FLuc reporter, luciferase, 48 h; Potency, µM (top dose mostly 38.3 µM), for inactives: at the highest dose reporter change, positive = more light; AID 2288; 340,000 tested, under 10 active; active = well fitted rising curve with a large enough effect; inconclusive = small, poorly fitted or top-dose-only effect; inactive = no such curve, though single readings can be large or run the other way;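 note: % of control where 0% means no effect; miR-21 action dims this reporter so a rising signal means less miR-21 action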
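HeLa miR-21-FLuc reporter line, endogenous miR-21; 2000 cells/well in DMEM/10% FBS; compound titration up to ~40uM final, 48 h, 37 degree Celsius; luciferase detection reagent, 15 min lysis, CCD luminescence.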
A549 tox-1 = kills or reduces viability of A549 cells in Nrf2 counter-screen; A549 ARE-Fluc cells, CellTiter-Fluor viability, 18-24 h; Potency, µM (series often up to 46 µM), for the others: at the top dose activity change, negative = cytotoxicity, actives largely listed as inhibitors; hit rate 0.16% among 390,000; also: potency is read from the fitted curve at half-maximal effect; % is scaled to controls: 0 for no effect and ±100 for the full control effect
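Cytotoxicity counterscreen: CellTiter-Fluor fluorescence was measured in A549 ARE_Fluc cells after 18-24 h of compound exposure in a concentration series. The subsequent BugLite luminescent read reports ARE-luciferase activity.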
p53 reactivator = restores transcriptional activity of mutant p53; Potency, µM (titrated, usually from 92.2 µM), inactives show top-dose activity change, positive = activation, usual class: activators; hit rate 0.063% among 320,000; AID 504706; H1299 p53-A138V BP100-luciferase reporter, luminescence, 24 h; also: potency is read from the fitted curve at half-maximal effect; % of control where 0% means no effect; nearly all actives have a fitted effect of over 45% in size
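p53-null H1299 cells stably carrying temperature-sensitive p53-A138V and a BP100-luciferase reporter were pinned with compounds (4-point, 1:5 series) and held 24 hrs at 37 deg C. Luminescence was read 10 min after detection reagent.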
ClpP mod = qHTS Assay for Activators of ClpP | ATP-dependent Clp protease proteolytic subunit (Bacillus subtilis (strain 168)), P80244 | purified B. subtilis ClpP, FRET peptide cleavage, 20 min | Potency, µM (top dose mostly 57.5 µM), inactives show at the highest dose activity change, negative = active | hit rate 1.9% among 340,000; active = well fitted falling curve with a large enough effect; inconclusive = small, poorly fitted or top-dose-only effect; inactive = no such curve, though single readings can be large or run the other way; also: potency is read from the fitted curve at half-maximal effect; the source files actives as falling curves though it sought activators and does not explain the sign; nearly all actives have a fitted effect of over 65% in size
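FRET quenching reversal measured ClpP activation: 10 microg/mL B. subtilis ClpP at pH 8 with the FRET-FV decapeptide, read at 430 nm after 320 nm excitation. The 20-min minus 0-min signal was scaled between DMSO/no-enzyme wells and ADEP (5.8 microM final).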
Nrf2 block = blocks Nrf2 signaling. Potency, µM (highest dose often 46 µM), without a hit: top-dose activity change, negative = inhibition, most hits filed as inhibitors. AID 504444. hit rate 2.1% among 360,000. A549 ARE-Fluc reporter, luciferase luminescence, 18-24 h; also: potency is read from the fitted curve at half-maximal effect; % is scaled to controls: 0 for no effect and ±100 for the full control effect; nearly all actives have a fitted effect of over 60% in size
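A549 ARE_Fluc cells (5000/well, 5% FBS OPTI-MEM) pre-incubated 2 h, then treated with compounds 18-24 h at 37C/5% CO2 in concentration-response. CellTiter-Fluor viability read first; BugLite luciferase luminescence after 15 min at room temperature gives Nrf2 activity.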
Nrf2 activator = activators of Nrf2 (ARE) signaling; AREc32 ARE-luciferase reporter (MCF7-derived line), luminescence, 24 h; Potency, µM (doses to about 46.1 µM), for inactives: at the top dose activation, most hits filed as activators; hit rate 0.31% among 410,000; AID 624171; also: potency is read from the fitted curve at half-maximal effect; % of control where 0% means no effect; nearly all actives have a fitted effect of over 65% in size
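Quantitative high-throughput format: AREc32 reporter cells, 1000 per well, received compound by pin transfer and were incubated 24 hr at 37 deg C, 5% CO2, before Steady-Glo luminescence detection.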
FLuc enzyme inh = counter-screen for Nrf2 inhibitors: firefly luciferase enzyme inhibition | shares compounds with Nrf2 block | purified firefly luciferase, luminescence inhibition | Potency, µM (titrated, usually from 57.5 µM), for the others: at the top dose activity change, negative = inhibition, actives largely listed as inhibitors | hit rate 4% among 1,400; also: potency is read from the fitted curve at half-maximal effect; % is scaled to controls: 0 for no effect and ±100 for the full control effect; nearly all actives have a fitted effect of over 65% in size
A549 tox-2 = A549 cytotoxicity, Nrf2 inhibitor counterscreen | hit rate 2% among 1,400 | Potency, µM (titrated, usually from 46.1 µM), inactives show at the top dose activity change, negative = cytotoxicity, most hits filed as inhibitors | A549 ARE-Fluc cells, cytotoxicity counterscreen | shares compounds with Nrf2 block;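 also: potency is read from the fitted curve at half-maximal effect; cells exposed to compounds for 18 to 24 hours; % is scaled to controls: 0 for no effect and ±100 for the full control effect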
Nrf2 ARE inh = Nrf2 inhibition confirmed, A549 ARE-luciferase; shares compounds with Nrf2 block; hit rate 74% among 1,400; AID 720524; Potency, µM (titrated, usually from 46.1 µM), for the others: at the top dose activity change, negative = inhibition, most hits filed as inhibitors; A549 ARE-firefly luciferase reporter, luminescence; also: potency is read from the fitted curve at half-maximal effect; % is scaled to controls: 0 for no effect and ±100 for the full control effect; nearly all actives have a fitted effect of over 65% in size
* marks the source's active call; other numbers are inactive results; ? = inconclusive; . = not tested or not shown. Unless noted, calls follow the shape of the dose curve; as a rule, active = well fitted curve in the direction sought with a large enough effect; inconclusive = small, poorly fitted or top-dose-only effect, or another doubt; inactive = no such curve, though single readings can be large; an effect the other way counts as inactive or inconclusive.

(1) O=C(NCc1cccs1)c1nc2c(nnn2Cc2ccccc2Cl)c(=O)[nH]1
(2) CCc1ccc(NC(=O)CN2C(=O)c3cccc4cccc2c34)cc1
(3) CC(O)c1nc2ccccc2[nH]1 (stereo not given)
(4) COc1ccc(OC(C)c2nc3ccccc3[nH]2)cc1 (stereo not given)
(5) Cc1ccc(-n2cnnn2)cc1S(N)(=O)=O
(6) COc1cccc(C(=O)N2CCC(C(=O)Nc3cccc(Cl)c3)CC2)c1
(7) Cc1ccc(-c2nnn3c2nc(N2CCC(C)CC2)c2ccccc23)cc1
(8) Cc1c(Cl)cccc1NC(=O)Cn1cc(C(=O)C2CCCCC2)c2ccccc21
screen / no. | 1 | 2 | 3 | 4 | 5 | 6 | 7 | 8
miR-21 reporter | ? | -7% | . | 28% | 3% | 0% | -21% | ?
A549 tox-1 | ? | 3% | . | -19% | -2% | 0% | 2% | -21%
p53 reactivator | ? | . | . | . | . | . | . | .
ClpP mod | -1% | 4% | -1% | 0% | 2% | 2% | -4% | 0%
Nrf2 block | 5.8µM* | 9% | . | 9.2µM* | . | -1% | 10% | 2.9µM*
Nrf2 activator | -1% | 0% | . | 5% | 0% | 1% | 1% | 0%
FLuc enzyme inh | ? | . | . | -29% | . | . | . | 0%
A549 tox-2 | ? | . | . | 15% | . | . | . | -16%
Nrf2 ARE inh | 2.1µM* | . | . | -19% | . | . | . | .

(9) O=C(Nc1ccc(N2CCOCC2)cc1)c1ccc(Cl)c(S(=O)(=O)N2CCCC2)c1
(10) CC1CCCN(S(=O)(=O)c2cc(C(=O)NCCc3ccc(S(N)(=O)=O)cc3)ccc2Cl)C1 (stereo not given)
(11) O=C(NCCc1ccc(F)cc1)c1ccc(Cl)c(S(=O)(=O)N2CCOCC2)c1
(12) Cc1ccc(C(=O)Nc2ccc(N3CCOCC3)cc2)cc1S(=O)(=O)N1CCCCC1
(13) COc1ccc(CNC(=O)c2ccc(Cl)c(S(=O)(=O)N3CCOCC3)c2)cc1OC
(14) Cc1ccc(CNC(=O)c2ccc(CN3CC(=O)N4CCCCC4C3=O)cc2)cc1 (stereo not given)
(15) COc1ccc(-c2nc3ccc(NC(C)=O)cc3c(=O)n2Cc2cccc(Cl)c2)cc1COc1ccc(NC(C)=O)cc1
(16) CC1CN(S(=O)(=O)c2cc(C(=O)NCCC3=CCCCC3)ccc2Cl)CC(C)O1 (stereo not given)
screen / no. | 9 | 10 | 11 | 12 | 13 | 14 | 15 | 16
miR-21 reporter | . | . | . | . | . | 7% | . | .
A549 tox-1 | 0% | ? | -9% | 3% | ? | 14% | -11% | -19%
p53 reactivator | -3% | . | ? | 10% | -2% | . | . | ?
ClpP mod | 37% | -1% | 0% | 1% | 1% | -2% | -24% | .
Nrf2 block | 9.2µM* | 4.1µM* | 8.2µM* | ? | 1.3µM* | -7% | ? | 8.2µM*
Nrf2 activator | 1% | 0% | 0% | 0% | -1% | 0% | . | 3%
FLuc enzyme inh | -2% | 1% | -12% | . | 0% | . | . | ?
A549 tox-2 | -3% | -26% | -8% | . | 5% | . | . | -15%
Nrf2 ARE inh | 7.3µM* | 12µM* | ? | . | . | . | . | 5.8µM*

2 entries from above, with tabs.
#	mol	miR-21 reporter	A549 tox-1	p53 reactivator	ClpP mod	Nrf2 block	Nrf2 activator	FLuc enzyme inh	A549 tox-2	Nrf2 ARE inh
5	Cc1ccc(-n2cnnn2)cc1S(N)(=O)=O	3%	-2%	.	2%	.	0%	.	.	.
6	COc1cccc(C(=O)N2CCC(C(=O)Nc3cccc(Cl)c3)CC2)c1	0%	0%	.	2%	-1%	1%	.	.	.

(cont.)
(17) O=C(NCCC1=CCCCC1)c1ccc(F)c(S(=O)(=O)N2CCOCC2)c1
(18) COc1ccc(CCNC(=O)c2ccc(Cl)c(S(=O)(=O)N3CCCCCC3)c2)cc1
(19) O=C(NCCc1ccccc1)c1ccc(Cl)c(S(=O)(=O)N2CCCC2)c1
(20) CCOc1ccccc1NC(=O)Cn1c(=O)n(-c2ccc(C)c(C)c2)c(=O)c2c(C)c(C(=O)N(C)C)sc21
(21) CNc1c(Br)cc(C(O)C2=CCc3ccccc32)cc1Br (stereo not given)
(22) Cc1ccc(C(=O)Oc2coc(CSc3nnc(NC(=O)c4cccs4)s3)cc2=O)cc1
(23) CC(=O)Nc1nnc(SCc2cc(=O)c(OC(=O)c3ccccc3)co2)s1
(24) Cc1nn(C)c(C)c1NC(=O)COc1ccc(Cl)cc1Br
screen / no. | 17 | 18 | 19 | 20 | 21 | 22 | 23 | 24
miR-21 reporter | -9% | . | 16% | 0% | . | -3% | 1% | .
A549 tox-1 | -4% | -13% | -6% | -5% | . | -1% | -3% | -12%
p53 reactivator | ? | -2% | -3% | . | . | 5% | 1% | 1%
ClpP mod | 0% | 0% | -4% | 2% | -1% | -6% | . | ?
Nrf2 block | 3% | 8.2µM* | ? | . | . | 6.5µM* | 1% | 8.2µM*
Nrf2 activator | 0% | -1% | 0% | 1% | . | -1% | 0% | 0%
FLuc enzyme inh | . | 0% | . | . | 1% | ? | . | -10%
A549 tox-2 | . | -10% | . | . | -16% | 1% | . | -7%
Nrf2 ARE inh | . | 8.2µM* | . | . | 4.6µM* | 4.6µM* | . | 7.3µM*

(25) Cc1ccccc1C(=O)N(C)c1ccccc1C(=O)NCc1ccccc1
(26) COc1ccc(Cl)cc1S(=O)(=O)Nc1cccc(-c2ccc(N3CCOCC3)nn2)c1
(27) CCCN(CCC)C1=CC(=[N+]2CCCC2)CC(C)(C)C1
(28) CC1(C)CC(N2CCOCC2)=CC(=[N+]2CCOCC2)C1
(29) CN(C)NC1=CC(=[N+]2CCCC2)CC(C)(C)C1
(30) CC1(C)CC(N2CCCCC2)=CC(=[N+]2CCCCC2)C1
(31) O=c1[nH]nc(-c2ccc(NCCO)c([N+](=O)[O-])c2)c2ccccc12
(32) O=[N+]([O-])c1cc(Cl)cc2c1nc(NCCO)c1ccccc12
screen / no. | 25 | 26 | 27 | 28 | 29 | 30 | 31 | 32
miR-21 reporter | 3% | -31% | ? | -1% | -4% | ? | -41% | 4%
A549 tox-1 | ? | 1% | -17% | -7% | 3% | -21% | -13% | ?
p53 reactivator | 8% | . | 0% | -1% | 8% | 2% | -2% | 1%
ClpP mod | -2% | -1% | -10% | . | . | -2% | . | .
Nrf2 block | ? | . | 2.1µM* | -6% | -14% | 2.3µM* | ? | 1.3µM*
Nrf2 activator | -1% | 2% | 2% | -1% | 0% | 0% | 3% | 8.9µM*
FLuc enzyme inh | . | . | 0% | . | . | 2% | . | -1%
A549 tox-2 | . | . | -10% | . | . | -13% | . | ?
Nrf2 ARE inh | . | . | 4.6µM* | . | . | 9.2µM* | . | 0.73µM*

(33) Cc1ccc(-n2c(-c3ccc(Br)cc3)c[n+]3c2CCc2ccc4cccnc4c2-3)cc1
(34) COc1cc2c(NC3CCN(C(C)C)CC3)nc(N3CCCN(C)CC3)nc2cc1OCCOCCN(C)C
(35) COc1cc2c(NC3CCN(C)CC3)nc(N3CCCN(C)CC3)nc2cc1OCCOCCN(C)C
(36) COc1cc2c(NC3CCN(C(C)C)CC3)nc(N3CCCN(C)CC3)nc2cc1OCCCN1CCCC1
screen / no. | 33 | 34 | 35 | 36
miR-21 reporter | ? | . | . | .
A549 tox-1 | -22% | . | . | .
p53 reactivator | -12% | . | . | .
ClpP mod | -22% | 4% | 4% | 4%
Nrf2 block | 2.9µM* | . | . | .
Nrf2 activator | 6% | . | . | .
FLuc enzyme inh | -10% | 1% | . | -2%
A549 tox-2 | ? | -37% | . | ?
Nrf2 ARE inh | 5.8µM* | 6.5µM* | . | 1.5µM*
